# Reference: ChEMBL document CHEMBL4602618, “Novel compounds that reverse the disease phenotype in Type 2 Gaucher disease patient-derived cells” (Bioorg Med Chem Lett, 2020)
# Species on record: Homo sapiens
# Assay: Potency index, ratio of EC50 of tamoxifen to EC50 of compound for chaperone activity at GCase L444P GBA gene mutant in human fibroblasts derived from Gaucher patient assessed as increase in GPN-induced reduction of calcium release using Fluo-8AM based fluorescence assay
compound,measurement,value
CC(C)CCC(C(=O)c1ccc(OCCN(C)C)cc1)c1ccccc1 (stereo unspecified),Ratio EC50,3
